# Curated experimental data: logP (octanol/water) values

logP is the log10 of the octanol-water partition coefficient; higher is more lipophilic.
"–" marks a cell with nothing listed here.

compound | name | logP
CCC(=O)CC(C)(C)c1ccccc1 | 5-Methyl-5-phenylhexan-3-one | 3.5
CCCCCCCCCCCC(=O)N[C@@H](CCC(=O)O)C(=O)[O-].[Na+] | L-Glutamic acid, N-(1-oxododecyl)-, sodium salt (1:1) | -1.33
CN(C)CCCO | 1-Propanol, 3-(dimethylamino)- | -0.24
CC(C)c1ccc(CCC=O)cc1 | Benzenepropanal, 4-(1-methylethyl)- | 3.5
CO[C@@H]1C=CO[C@]2(C)Oc3c(C)c(O)c4c(c3C2=O)C(=O)C(N)=C(NC(=O)C(C)=CC=C[C@@H](C)[C@@H](O)[C@H](C)[C@H](O)[C@H](C)[C@@H](OC(C)=O)[C@H]1C)C4=O | – | 4.1
BrC=Cc1ccccc1 | (2-Bromovinyl)benzene | 3.391
C=CN1CC(C)OC1=O (stereo not drawn) | 3-Ethenyl-5-methyl-1,3-oxazolidin-2-one | 0.8
CCCCCCCC[Si](OCC)(OCC)OCC | Triethoxyoctylsilane | 6.41
Nc1c(Cl)cc(C(F)(F)F)cc1Cl | 4-Amino-3,5-dichlorobenzotrifluoride | 4.58
Nc1c[n+]([O-])c2ccccc2[n+]1[O-] | Tirapazamine | -0.3
CCCCC(CC)CCl (stereo not drawn) | 3-(Chloromethyl)-heptane | 5.6
N#Cc1ccc(Br)cc1 | Benzonitrile, 4-bromo- | 2.36
CCCCCCCCCCCCN(CCC(=O)[O-])CCC(=O)O.[Na+] | beta-Alanine, N-(2-carboxyethyl)-N-dodecyl-, monosodium salt | -2.12
CCC(O)CO (stereo not drawn) | 1,2-Butanediol | -0.02
COC(=O)c1cc(C(=O)O)cc([N+](=O)[O-])c1 | 1,3-Benzenedicarboxylic acid, 5-nitro-, 1-methyl ester | 1.65
Nc1ccc(Br)c(C(F)(F)F)c1 | 4-Bromo-alpha,alpha,alpha-trifluoro-m-toluidine | 2.7
CCCc1ccc2c(c1)OC(C(C)=O)O2 (stereo not drawn) | 1-(5-Propyl-1,3-benzodioxol-2-yl)ethanone | 2.69
Cl.N=C(N)c1cccc([N+](=O)[O-])c1 | 3-Nitrobenzene-1-carboximidamide--hydrogen chloride (1/1) | 0.72
CCCCC(CC)COP(=O)(O)OCC(CC)CCCC (stereo not drawn) | Bis(2-ethylhexyl) phosphate | 2.67
O=Cc1cccc2c1OC(F)(F)O2 | 2,2-Difluoro-2H-1,3-benzodioxole-4-carbaldehyde | 2.2
CC(=O)OCC(CCn1cnc2c(Cl)nc(N)nc21)COC(C)=O | – | 0.92
C=CC(C)CCCC(C)(C)O (stereo not drawn) | 1,1,5-Trimethyl-6-heptenol | 3.47
CC(C)OP(=O)(CP(=O)(OC(C)C)OC(C)C)OC(C)C | Tetraisopropyl methylenediphosphonate | 1.3
CCOC(=O)C1C2CCC(CC2)C1N.Cl (stereo not drawn) | – | -0.55
C=CC(C)CCC=C(C)CCC=O (stereo not drawn) | 4,8-Dimethyl-4,9-decadienal | 4.5
O=S(=O)([O-])c1cccc(/N=N/c2ccc(/N=N/c3ccc(N(CCO)CCO)cc3)c3ccccc23)c1.[Na+] | – | 0.1
CC(C)=CCC/C(C)=C/CC[C@H](C)CC=O | (3S,6E)-3,7,11-Trimethyl-6,10-dodecadienal | 6.21
O=C1CCC(=O)[C@H]2[C@@H]1[C@H]1CC[C@@H]2C1=C(Cl)Cl | – | 2.2
Cc1ccc(N=Nc2c(O)ccc3ccccc23)c(C)c1 | C.I. Solvent Orange 7 | 6.6
O=C(Cl)COc1ccc(Cl)cc1Cl | (2,4-Dichlorophenoxy)acetyl chloride | 0.915
O=C(O)C(=O)[C@@H](O)[C@H](O)[C@@H](O)CO | 2-Keto-L-gulonic acid | -3.08
CCOc1ccc(C2(C(=O)OC(C#N)c3cccc(Oc4ccccc4)c3)CC2(Cl)Cl)cc1 (stereo not drawn) | Cycloprothrin | 5.8
C=C(C)C(=O)OCCCCCC | n-Hexyl methacrylate | 4.27
Nc1nc(F)nc2c1ncn2[C@@H]1O[C@H](COP(=O)(O)O)[C@@H](O)[C@@H]1O | Fludarabine phosphate | -2.8
O=C(O)c1cc(S(=O)(=O)[O-])cc(Nc2nc(Nc3cc(S(=O)(=O)[O-])cc(C(=O)O)c3O)nc(Nc3cc(S(=O)(=O)[O-])cc(C(=O)O)c3O)n2)c1O.[Na+].[Na+].[Na+] | – | -2.67

Excerpt, the opening 2 entries:

compound | name | logP
CCC(=O)CC(C)(C)c1ccccc1 | 5-Methyl-5-phenylhexan-3-one | 3.5
CCCCCCCCCCCC(=O)N[C@@H](CCC(=O)O)C(=O)[O-].[Na+] | L-Glutamic acid, N-(1-oxododecyl)-, sodium salt (1:1) | -1.33

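The OPERA project collected these measurements from public sources as training and test data for property models. One number stands for a compound and property, with no spread given. Method and conditions are not stated for these values. The measured form (salt, isomer or mixture) is not always the one drawn. Unmarked limits or estimates from the upstream databases cannot be ruled out.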

Data: OPERA 2.9 data sets, kmansouri/OPERA on GitHub.